# Values quoted from earlier work in patent US4079139A, “Flavone derivatives” (priority 1974, dated 1978).
# Where two headings read alike, the source gives them in different places.
# System: toxicity of sodium Pentobarbital
# Details: cited from earlier work
Structure (SMILES),"effect on the toxicity of the barbiturate (mouse, in vivo)","effect on the toxicity of the barbiturate (background statement, in words)"
CN1[C@@H](CC(=O)c2ccccc2)CCC[C@H]1C[C@H](O)c1ccccc1 [lobeline],raise the same,
O=C1C[C@@H]2OCC=C3CN4CC[C@]56c7ccccc7N1[C@H]5[C@H]2[C@H]3C[C@H]46 [strychnine],,do not modify the toxicity of the barbiturate
